{"sequences": {"note": "The chains behind the UniProt entries cited, without tags or fusion partners.", "UniProt P56524, whole entry": "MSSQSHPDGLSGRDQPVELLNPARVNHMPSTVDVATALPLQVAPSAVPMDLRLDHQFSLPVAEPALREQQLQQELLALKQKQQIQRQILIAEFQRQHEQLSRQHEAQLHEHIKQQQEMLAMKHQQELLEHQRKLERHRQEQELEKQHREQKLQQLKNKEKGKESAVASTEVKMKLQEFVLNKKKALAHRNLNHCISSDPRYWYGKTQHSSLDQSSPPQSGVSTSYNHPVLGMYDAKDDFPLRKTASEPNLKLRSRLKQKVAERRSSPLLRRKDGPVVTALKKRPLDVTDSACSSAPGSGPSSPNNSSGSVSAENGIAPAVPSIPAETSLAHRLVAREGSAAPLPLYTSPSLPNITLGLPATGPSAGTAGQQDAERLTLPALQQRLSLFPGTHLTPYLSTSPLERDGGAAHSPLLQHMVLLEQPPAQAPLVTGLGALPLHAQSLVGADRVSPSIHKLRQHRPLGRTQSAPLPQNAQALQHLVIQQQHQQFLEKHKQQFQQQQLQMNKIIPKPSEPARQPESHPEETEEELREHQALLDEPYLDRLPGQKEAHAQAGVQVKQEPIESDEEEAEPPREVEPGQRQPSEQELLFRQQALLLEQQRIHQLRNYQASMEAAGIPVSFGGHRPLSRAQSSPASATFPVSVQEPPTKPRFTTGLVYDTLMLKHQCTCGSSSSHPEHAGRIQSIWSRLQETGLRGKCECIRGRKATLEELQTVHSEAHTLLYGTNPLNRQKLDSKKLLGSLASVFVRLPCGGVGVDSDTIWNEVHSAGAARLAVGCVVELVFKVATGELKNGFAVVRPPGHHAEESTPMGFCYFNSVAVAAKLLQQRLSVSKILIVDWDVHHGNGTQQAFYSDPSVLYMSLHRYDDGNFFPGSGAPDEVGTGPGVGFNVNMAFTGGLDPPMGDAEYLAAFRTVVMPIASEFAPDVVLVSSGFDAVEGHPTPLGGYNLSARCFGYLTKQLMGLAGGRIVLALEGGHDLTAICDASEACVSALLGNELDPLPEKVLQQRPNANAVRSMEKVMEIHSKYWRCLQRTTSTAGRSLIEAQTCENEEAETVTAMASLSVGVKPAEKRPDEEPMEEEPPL", "UniProt Q8WUI4, whole entry": "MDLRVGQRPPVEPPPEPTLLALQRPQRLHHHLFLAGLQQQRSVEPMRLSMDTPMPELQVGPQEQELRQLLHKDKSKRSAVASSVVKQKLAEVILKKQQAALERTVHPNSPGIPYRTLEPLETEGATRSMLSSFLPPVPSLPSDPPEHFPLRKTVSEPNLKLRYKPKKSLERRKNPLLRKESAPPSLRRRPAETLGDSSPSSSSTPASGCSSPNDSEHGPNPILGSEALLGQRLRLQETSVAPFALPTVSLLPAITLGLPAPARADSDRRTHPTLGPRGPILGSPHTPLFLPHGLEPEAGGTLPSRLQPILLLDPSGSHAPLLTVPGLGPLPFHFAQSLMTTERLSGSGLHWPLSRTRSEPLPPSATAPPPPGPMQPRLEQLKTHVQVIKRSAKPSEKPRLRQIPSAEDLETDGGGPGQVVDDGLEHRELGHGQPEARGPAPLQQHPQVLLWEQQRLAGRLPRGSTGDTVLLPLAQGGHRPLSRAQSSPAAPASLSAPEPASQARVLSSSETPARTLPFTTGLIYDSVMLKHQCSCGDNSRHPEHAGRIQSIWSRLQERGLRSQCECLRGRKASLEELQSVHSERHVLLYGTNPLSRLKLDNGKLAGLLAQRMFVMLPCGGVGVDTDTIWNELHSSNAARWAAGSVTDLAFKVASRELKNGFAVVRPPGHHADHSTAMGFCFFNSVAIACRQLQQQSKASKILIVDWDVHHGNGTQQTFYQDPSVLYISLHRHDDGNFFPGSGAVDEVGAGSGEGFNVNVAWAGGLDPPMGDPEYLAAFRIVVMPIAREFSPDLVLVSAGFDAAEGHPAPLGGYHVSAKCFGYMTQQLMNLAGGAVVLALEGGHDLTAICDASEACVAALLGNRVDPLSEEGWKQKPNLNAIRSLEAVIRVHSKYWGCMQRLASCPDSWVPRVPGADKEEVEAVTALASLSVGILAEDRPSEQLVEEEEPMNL", "UniProt Q9UBN7, whole entry": "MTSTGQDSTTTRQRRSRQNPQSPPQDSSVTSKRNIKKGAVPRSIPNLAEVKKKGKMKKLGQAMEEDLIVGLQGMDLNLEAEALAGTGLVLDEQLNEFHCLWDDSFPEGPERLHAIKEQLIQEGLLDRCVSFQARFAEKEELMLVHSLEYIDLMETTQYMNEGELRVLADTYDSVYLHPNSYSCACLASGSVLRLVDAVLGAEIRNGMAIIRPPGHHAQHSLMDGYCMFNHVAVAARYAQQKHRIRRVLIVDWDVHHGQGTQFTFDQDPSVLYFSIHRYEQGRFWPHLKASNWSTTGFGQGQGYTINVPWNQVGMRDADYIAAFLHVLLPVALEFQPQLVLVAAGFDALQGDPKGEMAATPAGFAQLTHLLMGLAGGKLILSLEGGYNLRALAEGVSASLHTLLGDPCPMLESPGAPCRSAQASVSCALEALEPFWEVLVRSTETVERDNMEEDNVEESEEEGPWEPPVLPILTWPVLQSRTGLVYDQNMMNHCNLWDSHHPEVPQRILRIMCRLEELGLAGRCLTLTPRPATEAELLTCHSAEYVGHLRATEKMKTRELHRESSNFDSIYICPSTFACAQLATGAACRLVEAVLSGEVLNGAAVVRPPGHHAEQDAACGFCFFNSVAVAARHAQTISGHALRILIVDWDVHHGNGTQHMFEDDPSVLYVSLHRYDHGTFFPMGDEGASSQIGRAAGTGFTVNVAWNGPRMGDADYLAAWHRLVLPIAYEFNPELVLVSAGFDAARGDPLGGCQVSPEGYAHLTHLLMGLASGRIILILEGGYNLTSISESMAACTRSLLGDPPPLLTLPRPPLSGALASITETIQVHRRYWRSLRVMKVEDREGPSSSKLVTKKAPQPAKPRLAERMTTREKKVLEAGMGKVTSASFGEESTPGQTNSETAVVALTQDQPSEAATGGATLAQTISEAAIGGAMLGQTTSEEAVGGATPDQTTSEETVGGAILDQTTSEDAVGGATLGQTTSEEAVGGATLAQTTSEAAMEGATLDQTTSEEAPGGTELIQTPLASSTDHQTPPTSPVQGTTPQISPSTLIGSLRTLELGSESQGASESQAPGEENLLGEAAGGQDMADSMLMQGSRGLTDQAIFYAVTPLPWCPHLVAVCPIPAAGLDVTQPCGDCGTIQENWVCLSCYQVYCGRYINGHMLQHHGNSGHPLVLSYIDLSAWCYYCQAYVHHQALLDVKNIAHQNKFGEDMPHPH"}, "source": "patent US20160378912A1", "about": "“STRUCTURE-BASED MODELING AND TARGET-SELECTIVITY PREDICTION” (EPIGENETX, LLC, priority 2013, published 2016)", "key": {"HDAC4": {"molecular_target": "HDAC4 (Homo sapiens, UniProt P56524)", "details": "cited from earlier work"}, "HDAC isoforms": {"tested_on": "HDAC isoforms", "assay": "HDAC inhibition profiled over several HDAC isoforms (experimental)", "format": "biochemical, human", "details": "range of pIC50 over the profiled HDAC isoforms"}, "HDAC7": {"molecular_target": "HDAC7 (Homo sapiens, UniProt Q8WUI4)", "details": "cited from earlier work"}, "HDAC6": {"molecular_target": "HDAC6 (Homo sapiens, UniProt Q9UBN7)", "details": "cited from earlier work; for pIC50exp: HDAC6 experimental activity assigned; for pIC50: training set composition"}, "[1]": {"details": "read-out: HDACs inhibitory activities IC50, training set"}}, "note": "Like-named read-outs stand apart in the source and are kept apart here."}
{"molecule": "O=C(CCCCCCC(=O)NO)NO", "values": [{"measurement": "IC50", "setting": "HDAC4; [1]", "result": 1400, "unit": "nM"}, {"measurement": "pIC50", "setting": "HDAC4; training set composition", "result": 5.89}, {"measurement": "Bioactivity range (ΔpIC50) DpIC50", "setting": "HDAC isoforms", "result": 1.66}, {"measurement": "IC50", "setting": "HDAC7; [1]", "result": 1300, "unit": "nM"}, {"measurement": "pIC50", "setting": "HDAC7; training set composition", "result": 5.89}, {"measurement": "pIC50exp", "setting": "HDAC6; HDAC6-1 (histone catalytic domain)", "result": 7}, {"measurement": "pIC50", "setting": "HDAC6; HDAC6-1", "result": 7.00}, {"measurement": "pIC50exp", "setting": "HDAC6; HDAC6-2 (tubulin catalytic domain)", "result": 7}, {"measurement": "pIC50", "setting": "HDAC6; HDAC6-2", "result": 7.00}, {"measurement": "IC50", "setting": "HDAC6; read-out: HDACs inhibitory activities IC50, HDAC6, training set", "result": 100, "unit": "nM"}]}
